ChEMBL document CHEMBL4813984, “An original pronucleotide strategy for the simultaneous delivery of two bioactive drugs” (Eur J Med Chem, 2021)

Legend:
[1] = Stability of compound in human CEM-SS cell extract assessed as half life
[2] = Stability of compound in RPMI 1640 culture medium containing 10% heat-inactivated fetal calf serum assessed as half life; conditions: cattle

`Cc1cn([C@H]2C[C@H](N=[N+]=[N-])[C@@H](COP(=O)(Nc3ccn([C@H]4CC[C@@H](CO)O4)c(=O)n3)OCCSC(=O)C(C)(C)C)O2)c(=O)[nH]c1=O` (some centres not stated) showed a t1/2 [1] of 2.3 h and a t1/2 [2] of 165 h.
